This test deals with A431 cells. The experiment in a line: FACS of P190-MMB constructs or cetuximab on A431 cells. It is filed as cell-based, human. The source says: In contrast, 190-MMB as the 4316 construct, binds EGFR and the presence of excess EGF promotes its binding.

As for “cetuximab: neutralizing anti-EGFR monoclonal antibody [reference compound]”, the “binding to A431” value was “binds”.

The values above are taken from patent publication US8834920B2, “Liposome composition for targeting egfr receptor” (Alza Corporation, priority 2006, dated 2014).
